# From patent US5736528A, “N^6 -(epoxynorborn-2-yl) adenosines as A1 adenosine receptor agonists” (priority 1995, dated 1998)
# Protein sequences, listed by entry. Tags and fused reporters are not part of them.
# UniProt P25099, whole entry: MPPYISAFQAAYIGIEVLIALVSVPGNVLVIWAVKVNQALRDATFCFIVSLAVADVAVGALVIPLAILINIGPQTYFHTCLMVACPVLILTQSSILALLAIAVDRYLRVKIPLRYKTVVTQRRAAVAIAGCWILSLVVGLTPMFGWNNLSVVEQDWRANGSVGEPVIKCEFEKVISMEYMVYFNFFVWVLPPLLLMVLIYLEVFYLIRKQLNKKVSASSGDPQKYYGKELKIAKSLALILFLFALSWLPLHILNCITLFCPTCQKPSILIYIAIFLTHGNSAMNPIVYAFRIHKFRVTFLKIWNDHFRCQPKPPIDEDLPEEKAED
# UniProt P47745, whole entry: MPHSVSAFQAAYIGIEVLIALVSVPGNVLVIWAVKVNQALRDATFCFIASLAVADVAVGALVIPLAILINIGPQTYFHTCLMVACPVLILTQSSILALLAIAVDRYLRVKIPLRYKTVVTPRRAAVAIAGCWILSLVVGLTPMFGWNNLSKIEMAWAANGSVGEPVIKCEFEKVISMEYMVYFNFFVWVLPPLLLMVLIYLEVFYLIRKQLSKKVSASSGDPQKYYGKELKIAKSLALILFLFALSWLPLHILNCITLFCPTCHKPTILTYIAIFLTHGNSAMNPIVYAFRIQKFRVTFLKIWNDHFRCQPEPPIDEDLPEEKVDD
# UniProt P46616, whole entry: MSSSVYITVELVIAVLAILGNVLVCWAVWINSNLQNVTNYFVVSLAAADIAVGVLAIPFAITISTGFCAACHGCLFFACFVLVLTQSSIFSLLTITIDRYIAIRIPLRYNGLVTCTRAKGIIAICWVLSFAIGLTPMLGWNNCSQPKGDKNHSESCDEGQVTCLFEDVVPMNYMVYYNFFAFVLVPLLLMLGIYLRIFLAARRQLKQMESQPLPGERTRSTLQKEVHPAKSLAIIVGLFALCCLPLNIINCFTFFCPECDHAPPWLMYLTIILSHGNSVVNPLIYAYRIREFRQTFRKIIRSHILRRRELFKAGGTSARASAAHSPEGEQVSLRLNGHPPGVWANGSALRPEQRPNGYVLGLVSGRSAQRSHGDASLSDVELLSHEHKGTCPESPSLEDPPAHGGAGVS
# Tests used:
# [1] = target: T1, rat brain adenosine A1 receptors (Rattus norvegicus, UniProt P25099); experiment: Antagonism of radioligand binding to rat brain adenosine A1 receptors; conditions: for Selectivity (A1 vs A2): rat brain
# T1 construct: rat brain A1 adenosine receptors; from tissue; host or cells: rat brain
# A1 adenosine receptor [2] = target: A1 adenosine receptor (Cavia porcellus, UniProt P47745); experiment: A1 receptor binding with [3H]CPX in forebrain membranes (Table 5); set-up: guinea pig forebrain (A1 receptor); from tissue; host or cells: guinea pig forebrain membranes; species or system guinea pig
# A1 receptor = target: T2, A1 receptor (Cavia porcellus, UniProt P47745); experiment: Antagonism of A1 receptor-mediated negative dromotropic effect (S-H interval prolongation) of CCPA, Schild analysis, isolated perfused heart; set-up: species or system guinea pig; conditions: vs NAX and CPX
# T2 construct: isolated perfused guinea pig heart; from tissue; host or cells: isolated perfused guinea pig heart
# A2 receptor = target: T3, A2 receptor (Cavia porcellus, UniProt P46616); experiment: Antagonism of A2 receptor-mediated coronary vasodilation (coronary conductance) caused by adenosine, isolated perfused heart; set-up: species or system guinea pig; conditions: ENX 0.4 μM with adenosine 4 μM
# T3 construct: isolated perfused guinea pig heart; from tissue; host or cells: isolated perfused guinea pig heart (coronary circulation)
# Excerpt: . The values are the mean±SEM from five guinea pig hearts. […]
# 1. Functional studies. […]
# Potency of various alkylxanthines to antagonize A2
# of a maximum coronary vasodilation caused by adenosine. Values in […]
# [3] = test system: serum cholesterol and heparin precipitating β-lipoproteins; experiment: Serum cholesterol and heparin precipitating β-lipoproteins in mice; type: in vivo; conditions: 100 mg/kg per os
# A1 adenosine receptor [4] = target: T4, A1 adenosine receptor (Rattus norvegicus, UniProt P25099); experiment: Biological activity and duration of action of ENX enantiomers; type: in vivo; conditions: S- vs R-enantiomer
# T4 construct: from tissue; host or cells: whole animal
Structure (SMILES),Selectivity (A1 vs A2) [1],selectivity for A1 vs. A2 (A1 adenosine receptor [2]) [fold],"Ratio A1/A2 (A1 adenosine receptor [2]; guinea pig, forebrain vs striatum membranes)",A1 vs A2 functional selectivity (comparison) (A1 receptor),effect on A2-mediated coronary vasodilation caused by adenosine (A2 receptor),HPL/CHOL ratio [3],potency in vivo relative to other enantiomer (A1 adenosine receptor [4]),binding selectivity for A1 vs A2 ([1]; S- vs R-enantiomer)
CCCn1c(=O)c2[nH]c([C@@H]3C[C@H]4C[C@@H]3[C@@H]3O[C@H]43)nc2n(CCC)c1=O [R-ENX],960,,,,,,,
"CCCn1c(=O)c2[nH]c(C3CC4CC3C3OC43)nc2n(CCC)c1=O (racemic) [ENX, 1,3-dipropyl-8-{3-oxatricyclo[3.1.2.0^2,4]oct-6(7)-yl}-xanthine]",1300,800,800,far more selective than NAX and CPX,remained unaltered,,,
CCCn1c(=O)c2[nH]c([C@H]3C[C@@H]4C[C@H]3[C@H]3O[C@@H]43)nc2n(CCC)c1=O [S-ENX],7800,,,,,below 0.92,substantially higher potency in vivo,higher binding selectivity for the A1 receptor
